Assay outcomes (PubChem)
Most compounds without a hit are left out; they make up all but 0.1% or so of the library.
Rango release inh = prevents RanGTP from dissociating the Rango-importin beta complex | O95149+P62826 | Biochemical FRET Rango-importin beta, RanGTP-induced dissociation | Potency, µM (top dose mostly 46.1 µM), for the others: at the highest dose activity change, negative = inhibition | 0.071% of 340,000 active; further: % of control where 0% means no effect; nearly all actives have a fitted effect of over 45% in size
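Two FRET readings bracket the reaction: one 5 min after compound meets Rango–importin beta, another 45 min after RanGTP-RCC1 (0.6 uM Ran, 0.2 uM RCC1, 2 mM GTP) is added. Only the second defines inhibition.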
LMNA splice mod = LMNA splicing modulation | HeLa LMNA splicing GFP/RFP minigene ratio, 48 h | 0.01% of 200,000 active | Potency, µM (highest dose often 46.1 µM), without a hit: at the highest dose ratio change, negative = inhibition, hits mostly inhibitors; active means well fitted inhibition curve with a large enough effect in the signal ratio, with a control signal flat, not every such curve was filed as active; inconclusive means small, poorly fitted or top-dose-only effect, or effect the other way, or a change in a side signal; the % refers to the signal ratio; further: on the % scale 0 is the no-effect control and ±100 the full control effect
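Read-out is the ratio of GFP to DsRed2 object intensity, acquired by 488 nm laser-scanning cytometry on HeLa lamin A-EGFP minigene reporter cells. Compound incubation 48 hrs at 37 °C in Opti-MEM with 2% FBS; DMSO 0.5% final.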
Rango complex inh = inhibitors of Rango-importin beta complex formation | 0.031% of 340,000 active | Potency, µM (doses to about 92.2 µM), for inactives: top-dose inhibition of complex formation | Rango CFP/YFP FRET sensor + importin beta, 45 min | Q14974;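 further: 0% = DMSO wells and 100% = buffer wells lacking importin beta; nearly all actives have a fitted effect of over 15% in size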
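FRET biosensor Rango (snurportin 1 IBB between N-terminal EYFP and C-terminal Cerulean), 50 nM in PBS/1 mM DTT/0.02% Tween-20/0.1% BSA, preincubated 5 min RT with compound; 0.125 microM importin beta added, 45 min RT, CFP/YFP FRET ratio read.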
* = called active by the depositor; ? = inconclusive; / = no result; ! = repeats disagree. Unless noted, the call rests on the fitted dose curve. Potency means the concentration at half of the fitted maximal effect.

1	CC(C)CS(=O)(=O)C1=NN2C(=N)/C(=C\c3ccc(OC(=O)c4ccco4)cc3)C(=O)N=C2S1
  Rango release inh: 26µM*; LMNA splice mod: /; Rango complex inh: ?

2	COc1ccc(/C=C2/C(=O)N(Cc3ccco3)C(=O)N(C(C)C)C2=O)cc1
  Rango release inh: -26%; LMNA splice mod: 13%; Rango complex inh: ?

3	COP(=O)(OC)c1nc(-c2ccc([N+](=O)[O-])cc2)oc1N1CCCCC1
  Rango release inh: 5%; LMNA splice mod: /; Rango complex inh: 29µM*

4	COP(=O)(OC)c1nc(-c2cccc3ccccc23)oc1N1CCCCC1
  Rango release inh: -11%; LMNA splice mod: /; Rango complex inh: ?

5	CC(=O)O[C@@H]1[C@H]2CC[C@@H]3[C@]1(C[C@@H](OC(C)=O)[C@@]1(O)C([C@@H]4O[C@@H]4C1(C)C)[C@]3(C)O)C[C@@]2(C)O (stereo not given in full)
  Rango release inh: -6%; LMNA splice mod: -2%; Rango complex inh: 4%

6	COc1ccc(CCn2c(O)c(C=Nc3cccc(F)c3)c(=O)[nH]c2=O)cc1OC
  Rango release inh: 2%; LMNA splice mod: /; Rango complex inh: -4%

7	O=C1NC(=O)C(=Cc2ccc(N3CCOCC3)o2)C(=O)N1
  Rango release inh: -13%; LMNA splice mod: /; Rango complex inh: ?

8	C=CCN1C(=O)/C(=C/c2ccc(N3CCOCC3)o2)C(=O)NC1=S
  Rango release inh: 1%; LMNA splice mod: ?; Rango complex inh: 58µM*

9	Cc1cc(C)cc(N2C(=O)/C(=C\c3ccc(N4CCN(C)CC4)o3)C(=O)NC2=S)c1
  Rango release inh: ?; LMNA splice mod: /; Rango complex inh: 52µM*

10	COc1cccc(N2C(=O)/C(=C/c3ccc(C)o3)C(=O)NC2=S)c1
  Rango release inh: -16%; LMNA splice mod: /; Rango complex inh: 0%

11	CN1CCC2(CC1)NC(=O)c1ccccc1N2
  Rango release inh: 3%; LMNA splice mod: /; Rango complex inh: -1%

12	CC(=O)c1cccc(OCC(=O)N2CCN(CC(=O)Nc3cccc(F)c3)CC2)c1
  Rango release inh: 4%; LMNA splice mod: /; Rango complex inh: 0%

13	COc1cc(C(O)CNC(C)C)cc(F)c1OC (stereo not given)
  Rango release inh: -19%; LMNA splice mod: /; Rango complex inh: 5%

14	CCCCCCCCCCCCCCCC[n+]1ccccc1
  Rango release inh: ?; LMNA splice mod: ?; Rango complex inh: 65µM*!

15	CCCCCCC[n+]1ccc(-c2cc[n+](CCCCCCC)cc2)cc1
  Rango release inh: 0%; LMNA splice mod: ?; Rango complex inh: 5%

16	Brc1ccc(Oc2ccc(Br)cc2Br)c(Br)c1
  Rango release inh: 26µM*; LMNA splice mod: /; Rango complex inh: -1%

17	Nc1ccc2cc(Br)ccc2c1
  Rango release inh: 4%; LMNA splice mod: /; Rango complex inh: -2%

18	O=C1CC(=O)N(Cc2ccccc2)C(=O)N1Cc1ccccc1
  Rango release inh: 6%; LMNA splice mod: /; Rango complex inh: ?

An excerpt of these results, with values under each structure:
Values run as follows: Rango release inh, LMNA splice mod, Rango complex inh
#13 COc1cc(C(O)CNC(C)C)cc(F)c1OC (stereo not given)
    -19%, /, 5%
#14 CCCCCCCCCCCCCCCC[n+]1ccccc1
    ?, ?, 65µM*!
